Assay [1] concerns the target T1, full-length human CSNK1A1 (Homo sapiens, UniProt P48729). As to the kind of experiment: CSNK1A1 Assay 2 (ADP-Glo, 1 μM ATP, substrate biotin-Ahx-KRRRAL-pS-VASLPGL). As to conditions: read-out: CSNK1A1 Assay 2 IC50 [mol/l] (median), Table 5, examples of WO 2016/120196. The method, then:
(§1) CSNK1A1-inhibitory activity of compounds of the present invention in presence of 1 μM adenosine-tri-phosphate (ATP) was quantified employing the CSNK1A1 assay as described in the following paragraphs. In essence, the enzyme activity is measured by quantification of the adenosine-di-phosphate (ADP), which is generated as a co-product of the enzyme reaction, via the “ADP-Glo™ Kinase Assay” kit from the company Promega. This detection system works as follows: In a first step the ATP not consumed in the kinase reaction is quantitatively converted to cAMP employing an adenylate cyclase (“ADP-Glo-reagent”), then the adenylate cyclase is stopped and the ADP generated in the kinase reaction converted to ATP which generates in a luciferase-based reaction a glow-luminescence signal (“Kinase Detection Reagent”).
Recombinant fusion protein of N-terminal Glutathion-S-Transferase (GST) and full-length human CSNK1A1, expressed by baculovirus infected insect cells and purified via Glutathion affinity chromatography, was purchased from Life Technologies (product no. PV4174) and used as enzyme. As substrate for the kinase reaction the biotinylated peptide biotin-Ahx-KRRRAL-pS-VASLPGL (C-terminus in amide form) was used which can be purchased e.g. from the company Biosyntan (Berlin-Buch, Germany). […]

Amino acid sequences for entries named in this document (tags omitted). Residues count along the entry.
UniProt P48729, whole entry: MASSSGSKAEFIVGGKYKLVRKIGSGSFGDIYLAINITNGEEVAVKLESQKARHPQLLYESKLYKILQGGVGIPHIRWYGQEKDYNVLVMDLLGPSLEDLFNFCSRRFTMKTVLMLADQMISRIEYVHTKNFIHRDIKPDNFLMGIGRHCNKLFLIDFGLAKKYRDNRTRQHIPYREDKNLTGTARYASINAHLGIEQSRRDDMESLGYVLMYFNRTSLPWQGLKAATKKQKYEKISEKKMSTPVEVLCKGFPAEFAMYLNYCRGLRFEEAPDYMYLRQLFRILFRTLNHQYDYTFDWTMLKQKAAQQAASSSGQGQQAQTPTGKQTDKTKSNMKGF
UniProt P00533, 669-1210 limits assumed: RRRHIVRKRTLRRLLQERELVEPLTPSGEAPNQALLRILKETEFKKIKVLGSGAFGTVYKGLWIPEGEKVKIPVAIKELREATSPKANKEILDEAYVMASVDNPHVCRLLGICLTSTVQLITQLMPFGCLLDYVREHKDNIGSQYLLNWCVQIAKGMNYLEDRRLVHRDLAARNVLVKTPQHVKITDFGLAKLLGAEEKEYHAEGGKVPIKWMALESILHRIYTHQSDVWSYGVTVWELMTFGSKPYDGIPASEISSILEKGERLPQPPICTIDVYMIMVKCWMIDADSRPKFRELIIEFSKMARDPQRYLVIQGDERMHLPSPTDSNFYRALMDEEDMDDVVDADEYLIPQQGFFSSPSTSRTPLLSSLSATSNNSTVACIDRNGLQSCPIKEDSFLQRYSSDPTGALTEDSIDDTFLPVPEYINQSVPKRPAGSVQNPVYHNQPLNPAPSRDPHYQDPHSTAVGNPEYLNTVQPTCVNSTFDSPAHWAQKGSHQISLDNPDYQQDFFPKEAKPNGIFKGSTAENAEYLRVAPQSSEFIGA

Assay [2] deals with wild-type Epidermal Growth Factor Receptor (EGFR) (Homo sapiens, UniProt P00533). Kind of assay: WT-EGFR Kinase Assay (TR-FRET, 2 mM ATP). The settings on record: read-out: EGFR Wildtyp-2 mM ATP IC50 [mol/l] (median), Table 5, examples of WO 2016/120196. The text has this:
Inhibitory activity of compounds of the present invention against wild-type Epidermal Growth Factor Receptor (EGFR) was quantified employing the TR-FRET based EGFR assay as described in the following paragraphs.
Recombinant fusion protein of N-terminal Glutathion-S-Transferase (GST) and a fragment of human EGFR (amino acids R669 to A1210), expressed in Sf9 insect cells and purified via affinity chromatography using Glutathion Sepharose as described above, was used as kinase. As substrate for the kinase reaction the biotinylated peptide biotin-Ahx-AEEEEYFELVAKKK (C-terminus in amide form) was used which can be purchased e.g. form the company Biosynthan GmbH (Berlin-Buch, Germany). […]
The resulting mixture was incubated 1 h at 22° C. to allow the binding of the biotinylated phosphorylated peptide to the streptavidine-XL665 and the PT66-Tb-Cryptate. Subsequently the amount of phosphorylated substrate was evaluated by measurement of the resonance energy transfer from the PT66-Tb-Cryptate to the streptavidine-XL665. Therefore, the fluorescence emissions at 620 nm and 665 nm after excitation at 337 nm were measured in a HTRF reader, e.g. a Pherastar (BMG Labtechnologies, Offenburg, Germany) or a Viewlux (Perkin-Elmer). […]

In assay [3] the target is T1, full-length human CSNK1A1. Kind of assay: CSNK1A1 Assay 1 (ADP-Glo, 1 μM ATP, substrate Btn-Ahx-SGSEGDSESGEEEG). The settings on record: read-out: CSNK1A1 Assay 1 IC50 [mol/l] (median), Table 5, examples of WO 2016/120196. The procedure:
as §1
Recombinant fusion protein of N-terminal Glutathion-S-Transferase (GST) and full-length human CSNK1A1, expressed by baculovirus infected insect cells and purified via Glutathion affinity chromatography, was purchased from Life Technologies (product no. PV4174) and used as enzyme. As substrate for the kinase reaction the biotinylated peptide Btn-Ahx-SGSEGDSESGEEEG (C-terminus in amide form) was used which can be purchased e.g. from the company Biosyntan (Berlin-Buch, Germany). […]

In the case of `CC(=O)Nc1cc(-c2[nH]c3c(c2Nc2ccccc2)C(=O)N(C)CC3)ccn1`, the figures for the IC50 in assay [1] and in assay [2] were 11.4 nM and 150 nM, respectively.
For the compound `CC(=O)Nc1cc(-c2[nH]c3c(c2Nc2ccccc2)C(=O)NCC3)ccn1`, the IC50 in assay [3] came out at 20.3 nM; in assay [2], 104 nM.
